ChEMBL document CHEMBL5131543, “Studying Lipophilicity Trends of Phosphorus Compounds by 31P-NMR Spectroscopy: A Powerful Tool for the Design of P-Containing Drugs” (J Med Chem, 2022)

Experiments:
[1] = Basicity of hydrogen bond, pKHB of compound by IR spectroscopy; assay type: physicochemical
[2] = […]-water partition coefficient, logP of compound by shake flask method based 31P-NMR analysis; details: octanol/water
[3] = Octanol-water partition coefficient, logP of compound by shake flask method based 31P-NMR analysis

Compound	pKHB [1]	logP [2]	logP [3]
CCOP(=S)(OCC)OCC	0.715	2.71	
CCOP(=O)(OCC)C(F)(F)Br	1.64		1.1
CCOP(=O)(OCC)C(F)F			0.78
